Data as given in patent US10000793B2, “Method for enumeration of mammalian cell micronuclei, while distinguishing chromatin of dead and dying cells” (priority 2004, dated 2018).

Assays:
L5178Y cells [1] = experiment: In vitro micronucleus test, flow cytometric (EMA/SYTOX) and microscopy scoring, L5178Y cells
Description: L5178Y cells were treated over a range of chemical concentrations in culture medium, one 25 cm^2 flask per concentration. During treatment, cells were at 3×10^5/ml in a volume of 20 ml per flask (this high number of cells facilitated multiple readings per flask). After a 4 hr treatment period, cells were washed one time via centrifugation at 600×g, resuspended in a volume of 40 ml culture medium, and transferred to 75 cm^2 flasks. Cells were re-incubated at 37° C. for 20 additional hrs—the equivalent of two normal doubling times.
In this case, cultures (1.5×10^5 cells/ml, 40 ml/flask) were continuously exposed to chemical over a range of concentrations. […]
Samples, stored for up to two days at 4° C., were gently tapped to resuspend the particles. […] SYTOX-associated fluorescence emission was collected in the FL1 channel (530/30 band-pass filter), and EMA-associated fluorescence was collected in the FL3 channel (670 long-pass filter). Events were triggered on FL1 fluorescence. The FCM gating strategy that was developed for this micronuclei scoring application required events to meet each of six separate criteria before they were scored as nuclei or micronuclei (see FIGS. 2A-H). The incidence of flow cytometric-scored micronuclei is expressed as frequency percent (no. micronuclei/no. nuclei×100), and are based on the acquisition of 20,000 EMA-negative nuclei per specimen. […]

L5178Y cells [2] = conditions: short-term exposure, up to 5 mg/ml
Description: Once L5178Y or CHO-K1 cells were collected as described above, cytotoxicity measurements were performed as follows: 0.5 ml of each culture was added to flow cytometry tubes containing fluorescein diacetate (“FDA”) (0.075 μg/ml), propidium iodide (“PI”) (25 μg/ml), and 2.5 μm Carmine 580/620 microspheres (Molecular Probes, Eugene, Oreg.). The concentration of these “counting beads” was determined with a hemacytometer. […] Relative survival was then calculated as follows: The number of FDA+ cells in each chemical treatment culture was expressed as a percentage of the number of FDA+ cells in the concurrent solvent control culture.

OC[C@H]1O[C@@](CO)(O[C@H]2O[C@H](CO)[C@@H](O)[C@H](O)[C@H]2O)[C@@H](O)[C@@H]1O [Sucrose]
MN Induction (≥3-fold) (L5178Y cells [1]): No
genotoxicity (micronucleus induction) (L5178Y cells [1]; L5178Y cells, short-term exposure (4 hr, 20 hr recovery), up to 5 mg/ml): neither cytotoxic nor genotoxic
cytotoxicity (relative survival) (L5178Y cells [2]): significant cytotoxicity was not observed
cytotoxicity (relative survival) (L5178Y cells [2]; listed as sucrose): neither cytotoxic nor genotoxic

Read-outs that look alike come from different tables or passages of the source.
